In assay [1] the target is T1, Metabotropic glutamate receptor 4 (Homo sapiens, UniProt Q14833). Description: Effective concentration against forskolin-stimulated cAMP formation in BHK cells expressing mGluR4 receptor. The class given is functional, cell-based. Background: cAMP levels reflect the balance of adenylyl cyclase and phosphodiesterase activity.
Assay [2] concerns the target T1, Metabotropic glutamate receptor 4. Description: Concentration required for the half-maximal inhibition of cAMP hydrolysis in BHK cells expressing mGluR4. The class given is functional, cell-based.
Assay [3] shares this target. Description: Binding affinity towards metabotropic glutamate receptor mGluR4a.
Assay [4] shares this target. Description: Concentration required for the half-maximal inhibition of cAMP formation in BHK cells expressing mGluR4. The class given is functional, cell-based.
For assay [5] the target is unchanged. Briefly: Effective concentration of compound against forskolin-stimulated cAMP formation in BHK cells expressing mGluR4 receptor. The class given is functional, cell-based.

Chains of the proteins cited; added tags and fusions are not shown. Lines headed by an entry give the natural chain unless they say otherwise; changes in a name come on top.
UniProt Q14833: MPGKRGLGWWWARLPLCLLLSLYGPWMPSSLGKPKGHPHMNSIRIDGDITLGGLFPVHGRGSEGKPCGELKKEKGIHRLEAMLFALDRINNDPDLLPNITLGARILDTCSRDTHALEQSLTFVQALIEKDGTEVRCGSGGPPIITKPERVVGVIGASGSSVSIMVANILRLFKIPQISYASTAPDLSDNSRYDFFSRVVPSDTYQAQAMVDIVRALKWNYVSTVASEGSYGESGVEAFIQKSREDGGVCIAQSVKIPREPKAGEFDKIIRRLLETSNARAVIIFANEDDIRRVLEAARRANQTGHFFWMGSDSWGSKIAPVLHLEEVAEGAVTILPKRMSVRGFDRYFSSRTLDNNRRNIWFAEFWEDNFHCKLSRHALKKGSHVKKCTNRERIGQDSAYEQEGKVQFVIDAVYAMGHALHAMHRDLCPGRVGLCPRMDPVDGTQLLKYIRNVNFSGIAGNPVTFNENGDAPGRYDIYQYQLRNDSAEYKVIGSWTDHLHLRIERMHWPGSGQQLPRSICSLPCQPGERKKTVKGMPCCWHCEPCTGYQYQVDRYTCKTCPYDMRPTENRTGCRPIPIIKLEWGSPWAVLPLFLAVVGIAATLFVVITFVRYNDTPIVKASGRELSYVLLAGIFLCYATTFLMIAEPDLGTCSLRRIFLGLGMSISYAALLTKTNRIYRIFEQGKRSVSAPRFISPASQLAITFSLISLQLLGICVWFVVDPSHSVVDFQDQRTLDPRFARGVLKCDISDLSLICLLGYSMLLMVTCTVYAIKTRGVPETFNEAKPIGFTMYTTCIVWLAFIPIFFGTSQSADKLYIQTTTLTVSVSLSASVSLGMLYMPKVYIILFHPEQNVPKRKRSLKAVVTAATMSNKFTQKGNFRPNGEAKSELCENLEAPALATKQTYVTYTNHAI

As to `N[C@H](C(=O)O)[C@H]1[C@@H](C(=O)O)[C@H]1c1ccccc1`, the EC50 in assay [1] was more than 300 µM. In assay [2], this molecule came in with an IC50 of more than 300 µM. The same molecule returned a Ki in assay [3] of more than 280 µM.
`N[C@H](C(=O)O)[C@@H]1[C@@H](C(=O)O)[C@H]1c1ccccc1` showed an EC50 in assay [1] of more than 300 µM. The same molecule registered a half-inhibitory concentration (IC50) in assay [2] of more than 300 µM. In addition, the Ki in assay [3] was more than 280 µM.
In assay [3], `N[C@@H](C(=O)O)[C@H]1[C@H](C(=O)O)[C@H]1c1ccccc1` had a Ki of more than 280 µM. In assay [4], this molecule returned a 50% effective concentration (EC50) of more than 300 µM and a half-inhibitory concentration (IC50) of more than 300 µM.
Consider `N[C@@H](C(=O)O)[C@@H]1[C@H](C(=O)O)[C@@H]1c1ccccc1`, for which the EC50 in assay [1] is more than 300 µM. Also, the half-maximal inhibitory concentration (IC50) in assay [2] is more than 300 µM. Moreover, the Ki in assay [3] is more than 280 µM.
With `N[C@@H](C(=O)O)[C@@H]1[C@@H](C(=O)O)[C@@H]1c1ccccc1`, the EC50 in assay [1] was more than 300 µM. The same molecule yielded a Ki in assay [3] of more than 280 µM. Also, the IC50 in assay [4] was more than 300 µM.
Consider `N[C@H](C(=O)O)[C@H]1[C@@H](C(=O)O)[C@@H]1c1ccccc1`, for which the EC50 in assay [1] is more than 300 µM. This molecule returned an IC50 in assay [2] of more than 300 µM. In assay [3], this molecule yielded a Ki of more than 280 µM.
In turn, `N[C@H](C(=O)O)[C@H]1[C@H](C(=O)O)[C@H]1c1ccccc1` displayed an EC50 in assay [1] of more than 300 µM. The molecule further had a Ki in assay [3] of more than 280 µM. Also, in assay [4], the IC50 was more than 300 µM.
`N[C@@H](C(=O)O)[C@H]1[C@@H](C(=O)O)[C@H]1c1ccccc1` came in with an EC50 in assay [1] of more than 300 µM. This molecule also had a concentration for half-maximal inhibition (IC50) in assay [2] of more than 300 µM. In assay [3], this molecule registered an inhibition constant Ki of more than 280 µM.
`N[C@H](C(=O)O)[C@H]1[C@H](C(=O)O)[C@@H]1c1ccccc1` yielded a half-maximal effective concentration (EC50) in assay [1] of more than 300 µM. Further, the IC50 in assay [2] is more than 300 µM. Further, the inhibition constant (Ki) in assay [3] is more than 280 µM.
Regarding `N[C@@H](C(=O)O)[C@H]1[C@H](C(=O)O)[C@@H]1c1ccccc1`, in assay [1], the EC50 was more than 300 µM. In assay [2], this molecule gave a half-maximal inhibitory concentration (IC50) of more than 300 µM. This molecule returned a Ki in assay [3] of more than 280 µM.
In the case of `N[C@@H](C(=O)O)[C@@H]1[C@H](C(=O)O)[C@H]1c1ccccc1` (stereo in doubt; 44), the concentration for a half-maximal effect (EC50) in assay [1] is more than 300 µM. This molecule also registered an IC50 in assay [2] of more than 300 µM. In assay [3], this molecule showed a Ki of more than 280 µM.
In assay [2] (bhk), `N[C@@H](C(=O)O)[C@@H]1[C@H](C(=O)O)[C@H]1c1ccccc1` (stereo in doubt; 47) displayed an IC50 of more than 300 µM. This molecule displayed an EC50 in assay [5] of more than 300 µM. Besides, the inhibition constant (Ki) in assay [3] was more than 280 µM.
For the molecule `N[C@H](C(=O)O)[C@@H]1[C@H](C(=O)O)[C@@H]1c1ccccc1`, the half-maximal effective concentration (EC50) in assay [1] is more than 300 µM. For the same molecule, the half-inhibitory concentration (IC50) in assay [2] is more than 300 µM. In assay [3], the Ki was more than 280 µM.
In assay [1], `N[C@@H](C(=O)O)[C@@H]1[C@@H](C(=O)O)[C@H]1c1ccccc1` had a concentration for a half-maximal effect (EC50) of more than 300 µM. The molecule further gave a concentration for half-maximal inhibition (IC50) in assay [2] of more than 300 µM. Also, in assay [3], the Ki is more than 280 µM.
In the case of `N[C@H](C(=O)O)[C@@H]1[C@@H](C(=O)O)[C@@H]1c1ccccc1`, in assay [3], the inhibition constant (Ki) was found to be 50 µM.
In the case of `N[C@@H](C(=O)O)[C@H]1[C@@H](C(=O)O)[C@@H]1c1ccccc1`, the concentration giving a half-maximal response (EC50) in assay [1] is more than 300 µM. In assay [2], this molecule registered an IC50 of more than 300 µM. Besides, the Ki in assay [3] is more than 280 µM.

The EC50 is the concentration that produces a half-maximal response. A word on the IC50: it is the concentration that gives 50% inhibition. By Ki is commonly meant the equilibrium dissociation constant of an inhibitor or competing ligand from its target. Lower therefore signals higher affinity.

These data come from ChEMBL document CHEMBL1129330, “Synthesis and pharmacological characterization of all sixteen stereoisomers of 2-(2'-carboxy-3'-phenylcyclopropyl)glycine. Focus on (2S,1'S,2'S,3'R)-2-(2'-carboxy-3'-phenylcyclopropyl)glycine, a novel and selective group II metabotropic glutamate receptors antagonist” (J Med Chem, 1996).
